Key:
[1] = Redox activity by reaction with photo-excited dye under aerobic conditions (probe reduction at 470 nm and dye photo-bleaching); type: physicochemical
[2] = Redox activity of activators and inhibitors of membrane-bound transport proteins (overview statement); type: physicochemical; settings: activators and inhibitors of the sarcoplasmic reticulum calcium release channel; no reference given
[3] = 10 μM methylene blue, 100 μM NADH, 50 μM NBD-Cl, 80% dimethyl sulfoxide / 20% 1 mM Tris-HCl, pH 7.4, ryanodine 1 and 2 μM vs zero

ryanodine
rate of NBD-Cl reduction (increasing absorbance at 470 nm) [1, 3]: decreased
rate of methylene blue bleaching (decreasing absorbance at 663 nm) [1, 3]: decreased
redox activity (electron donor or electron acceptor) ([1]; conclusion from the photo-excited dye assay of the respective example): electron acceptor
redox activity (electron donor or electron acceptor) [2]: electron acceptors

Reference: patent publication US8017401B2, “Method for determining redox activity and screening compounds based on redox activity” (State of Oregon acting by and through the State Board of …, priority 2005, dated 2011)
